## Apparent affinities of Ab-14 variants for a coronavirus HR2 peptide

From the AlphaSeq antibody data of Engelhart et al. 2022 (doi:10.1038/s41597-022-01779-4), copy in the FLAb collection.

Antigen: PDVDLGDISGINAS, a 14-residue peptide of the SARS-CoV-2 spike HR2 region.

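The library (AAYL49) carries one to three amino acid substitutions per variant, with no insertions or deletions. The assay is AlphaSeq: two haploid yeast populations carry antibody and antigen on their surface. After mating in shaken culture at 30 °C for 16 h, diploids were selected and their barcode pairs sequenced. Each replicate has its own calibration line, from reference interactions of the BCL2 family. Each pool was mated in three replicate cultures.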

Parent: Ab-14, a human scFv built as VH, the linker GGGGSGGGGSGGGGS, VL. Only the CDRs of the heavy chain vary.
VH: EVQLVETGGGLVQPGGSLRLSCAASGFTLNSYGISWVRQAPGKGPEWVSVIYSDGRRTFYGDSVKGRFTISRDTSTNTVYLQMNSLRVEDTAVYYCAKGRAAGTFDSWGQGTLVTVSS
VL: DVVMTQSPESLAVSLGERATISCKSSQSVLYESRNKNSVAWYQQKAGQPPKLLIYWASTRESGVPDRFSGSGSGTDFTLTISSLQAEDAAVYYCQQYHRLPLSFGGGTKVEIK

The parent's heavy chain CDRs are GFTLNSYGIS, VIYSDGRRTFYGDSVK, GRAAGTFDS; each variant's own CDRs replace them letter for letter.
Values are log10 of the apparent Kd in nM; lower means stronger binding.
The mean shown is taken over the replicates in which the pair was detected.
An entry "nd" has no value in the source: the pair was not observed among the diploids in that replicate. This suggests poor binding but is not conclusive.
Nonspecific signal, from three strains lacking the peptide, appeared in 15% of pairings of library AAYL49, centred on 4.06 (5% of these signals below 2.83); values are not corrected for it. The control count says in how many pairings with the empty strains this scFv gave a signal, with their mean in brackets.

| CDR-H1 | CDR-H2 | CDR-H3 | log10 Kd, replicates | mean log10 Kd (nM) | signal with controls |
|---|---|---|---|---|---|
| GFTLNSYNIS | VIYSDGRRTFYADSVK | GRAAGTHDS | 4.95 / 5.91 / 4.82 | 5.22 | 7/9 (5.25) |
| GFTLNMYGIS | VIYSDGRRTFYGDSVK | GRKATTFDS | nd / nd / nd | nd | 0/9 |
| GFTLNSYGIS | VIYKDGRRTFYGDSVK | PRAAGTFNS | 3.86 / 4.16 / nd | 4.01 | 2/9 (3.08) |
| GFTLNSYKIS | VIYSDARRTFYGDSVK | GRAAGLFDS | nd / nd / nd | nd | 0/9 |
| GFTLNSYGIS | VIISDGRLTFYGDSVK | GRSAGTFDS | nd / 3.16 / nd | 3.16 | 3/9 (4.31) |
| GFTVNSSGIS | VIYSDGRFTFYGDSVK | GRAAGTFDS | nd / nd / nd | nd | 0/9 |
| GFTLNSYGIS | VIYSDSRRTFYGDSRK | GRAAGTSDS | nd / nd / nd | nd | 0/9 |
| GFTLNFYGIS | VIYSDGRRTFYMDSSK | GRAAGTFDS | 4.38 / nd / nd | 4.38 | 5/9 (3.98) |
| AFTLLSYGIS | VIYSDGRRTFYGDSVR | GRAAGTFDS | 1.66 / 1.83 / 1.60 | 1.70 | 4/9 (4.03) |
| GFTLNSYGIS | VIYSDARTEFYGDSVK | GRAAGTFDS | nd / nd / nd | nd | 0/9 |
| GFTLNSYGIS | VIYQDGRRTFYGDSVK | GRAAGTMDS | nd / nd / nd | nd | 1/9 (2.38) |
| GFTLNSYKIS | VIYSDGRRTFYGDSRK | GRSAGTFDS | nd / nd / 3.36 | 3.36 | 3/9 (3.49) |
| GFTKNSYGIS | VIYSDGRRAFYGDSVK | SRAAGTFDS | nd / nd / nd | nd | 0/9 |
| GFTLRSYGIS | VCYSDGRRTFYGDSVK | GRAAGTFDS | nd / nd / 5.44 | 5.44 | 4/9 (4.43) |
| GFTLNSYGIS | VIYNDGDRTFYGDSVK | GRAAGTFDS | nd / 4.85 / nd | 4.85 | 2/9 (3.47) |
| GFTLNSYGES | VYYSDGRRTFYGCSVK | GRAAGTFDS | 4.52 / 5.09 / nd | 4.80 | 3/9 (4.45) |
| GFTLNSYGIS | VIYSDGYHTEYGDSVK | GRAAGTFDS | 3.48 / 2.46 / 5.08 | 3.68 | 2/9 (3.54) |
| GFTLNTYDIS | VIYSDGRETFYGDSVK | GRAAGTFDS | nd / nd / nd | nd | 0/9 |
| GFTLGSYGIS | VKYSDGRRTFYGDSEK | GRAAGTFDS | nd / 3.13 / nd | 3.13 | 2/9 (4.52) |
| GFTLNSYGIT | VIYSDGRRTFYGCSVK | LRAAGTFDS | nd / nd / nd | nd | 1/9 (3.52) |
| GFTINSYGIS | VIYSDGRRTFYWDSVK | GRAAGTFDQ | nd / 3.01 / nd | 3.01 | 2/9 (3.67) |
| GFYLNSYGIS | VIYSDGRRTFYGDSVK | GRAAGTFDS | 1.55 / 1.59 / 1.59 | 1.57 | 0/9 |
| GFDLNSYLIS | VIYSDGRGTFYGDSVK | GRAAGTFDS | nd / nd / nd | nd | 2/9 (4.34) |
| GFTLNAYGIS | VHYSDGRRTFHGDSVK | GRAAGTFDS | nd / nd / nd | nd | 0/9 |
| GFTLNSYQIM | VIYSDGRRTFYGDSVK | IRAAGTFDS | nd / nd / nd | nd | 0/9 |
| GFTLNSYGIS | VIYSDGRRTFYGDSVK | ERAEGTFQS | nd / nd / nd | nd | 0/9 |
| GFTLNSYGKS | VIYSDGRRTFIGDSVK | GRLAGTFDS | nd / nd / 3.45 | 3.45 | 1/9 (5.20) |
| GFTINSYGIS | VIYSDGRRTFYNDYVK | GRAAGTFDS | 0.89 / 1.03 / 1.03 | 0.98 | 1/9 (3.64) |
| GFTLNSYGIS | VIYSDTRRTFYGDSVK | GRAAGTIDY | nd / nd / nd | nd | 0/9 |
| GFTLNSYGIS | VIYHDGRRTFYGDRVK | GRAAGTFDS | 2.85 / 2.96 / 2.70 | 2.84 | 2/9 (5.28) |

Extract of 3 entries:

CDR-H1	CDR-H2	CDR-H3	log10 Kd, replicates	mean log10 Kd (nM)	signal with controls
GFTLNSYKIS	VIYSDARRTFYGDSVK	GRAAGLFDS	nd / nd / nd	nd	0/9
GFTLNSYGIS	VIYHDGRRTFYGDRVK	GRAAGTFDS	2.85 / 2.96 / 2.70	2.84	2/9 (5.28)
GFTLNSYKIS	VIYSDGRRTFYGDSRK	GRSAGTFDS	nd / nd / 3.36	3.36	3/9 (3.49)